Cyclic peptide permeability, from CycPeptMPDB

PAMPA measures passive passage through an artificial lipid membrane. Permeability is in 10^-6 cm/s, converted from the database's log10 values; higher is more permeable.

compound,PAMPA (10^-6 cm/s)
CCCN1CC(=O)N[C@H](CC(C)C)C(=O)N[C@H](CC(C)C)C(=O)N2CCC[C@H]2C(=O)N(C)[C@H](CC(C)C)C(=O)N[C@@H](Cc2ccccc2)C1=O,1.1
CC(C)C[C@@H]1C(=O)N[C@@H](Cc2ccccc2)C(=O)N[C@H](C)C(=O)N(C)[C@@H](CC(C)C)C(=O)N[C@@H](Cc2ccccc2)CC(=O)N2CCC[C@H]2C(=O)N1C,2.6
CC(C)C[C@@H]1C(=O)N[C@H](CC(C)C)C(=O)N2CCC[C@@H]2C(=O)N[C@H](CC(C)C)C(=O)N[C@@H](Cc2ccccc2)C(=O)N[C@@H](C)C(=O)N1C,0.21
CC(C)C[C@@H]1C(=O)N2CCC[C@H]2C(=O)N(C)[C@H](CC(C)C)C(=O)N[C@@H](Cc2ccccc2)C(=O)N2CCC[C@@H]2C(=O)N(C)[C@H](C)C(=O)N(C)[C@@H](CC(C)C)C(=O)N1C,3.6
CC(C)C[C@H]1NC(=O)[C@H]2CCCN2C(=O)[C@H](CC(C)C)N(C)C(=O)[C@H](CC(C)C)N(C)C(=O)[C@@H](C)NC(=O)[C@H](Cc2ccccc2)NC1=O,1.1
CC(C)C[C@@H]1NC(=O)[C@@H](C)NC(=O)[C@H](Cc2ccccc2)NC(=O)[C@H](CC(C)C)NC(=O)[C@@H]2CCCN2C(=O)[C@H](CC(C)C)NC1=O,0.095
CC(C)C[C@@H]1C(=O)N[C@@H](Cc2ccccc2)C(=O)N2CCC[C@@H]2C(=O)N(C)[C@@H](C)C(=O)N[C@H](CC(C)C)C(=O)N(C)[C@H](CC(C)C)C(=O)N2CCC[C@@H]2C(=O)N1C,1.9
CC(C)C[C@H]1C(=O)N(C)[C@@H](CC(C)C)C(=O)N2CCC[C@H]2C(=O)N(Cc2ccccc2)CC(=O)N[C@@H](Cc2ccccc2)C(=O)N2CCC[C@H]2C(=O)N(C)[C@H](C)C(=O)N1C,2.8
CC(C)C[C@H]1NC(=O)[C@H](CC(C)C)N(C)C(=O)[C@H](C)NC(=O)[C@H](Cc2ccccc2)NC(=O)CN(Cc2ccccc2)C(=O)[C@H]2CCCN2C1=O,1.7
CCCN1CC(=O)N(C)[C@H](CC(C)C)C(=O)N(C)[C@@H](CC(C)C)C(=O)N2CCC[C@@H]2C(=O)N(C)[C@@H](CC(C)C)C(=O)N[C@@H](Cc2ccccc2)C(=O)N2CCC[C@@H]2C1=O,14
CC(C)C[C@H]1NC(=O)[C@@H]2CCCN2C(=O)[C@H](CC(C)C)N(C)C(=O)[C@@H](CC(C)C)NC(=O)C[C@H](Cc2ccccc2)NC(=O)[C@H]2CCCN2C(=O)[C@H](Cc2ccccc2)NC1=O,3.1
CC(C)C[C@@H]1C(=O)N[C@H](CC(C)C)C(=O)N2CCC[C@@H]2C(=O)N(C)[C@H](CC(C)C)C(=O)N[C@@H](Cc2ccccc2)C(=O)N2CCC[C@@H]2C(=O)N(C)[C@H](C)C(=O)N1C,4.4
CC(C)C[C@@H]1NC(=O)[C@H]2CCCN2C(=O)[C@H](CC(C)C)NC(=O)[C@@H](CC(C)C)N(C)C(=O)[C@H](C)NC(=O)[C@H](Cc2ccccc2)NC1=O,2.5
CC(C)C[C@H]1NC(=O)[C@H]2CCCN2C(=O)C[C@H](Cc2ccccc2)NC(=O)[C@H](CC(C)C)N(C)C(=O)[C@@H](C)NC(=O)[C@H](Cc2ccccc2)NC1=O,2.9
CC(C)C[C@@H]1C(=O)N(C)[C@H](CC(C)C)C(=O)N2CCC[C@@H]2C(=O)N(C)[C@@H](CC(C)C)C(=O)N[C@@H](Cc2ccccc2)C(=O)N2CCC[C@@H]2C(=O)N[C@@H](Cc2ccccc2)CC(=O)N1C,6.9
CC(C)C[C@@H]1NC(=O)[C@H](CC(C)C)N(C)C(=O)[C@@H](C)NC(=O)[C@H](Cc2ccccc2)NC(=O)CN(Cc2ccccc2)C(=O)[C@@H]2CCCN2C1=O,3.2
CC(C)C[C@@H]1C(=O)N(Cc2ccccc2)CC(=O)N2CCC[C@H]2C(=O)N(C)[C@H](CC(C)C)C(=O)N[C@@H](Cc2ccccc2)C(=O)N2CCC[C@H]2C(=O)N[C@@H](C)C(=O)N1C,1.6
CC(C)C[C@@H]1C(=O)N[C@H](CC(C)C)C(=O)N2CCC[C@H]2C(=O)N(C)[C@H](CC(C)C)C(=O)N[C@@H](Cc2ccccc2)C(=O)N2CCC[C@H]2C(=O)N[C@H](C)C(=O)N1C,1.5
CC(C)C[C@@H]1NC(=O)[C@H](C)N(C)C(=O)[C@H](Cc2ccccc2)NC(=O)CN(Cc2ccccc2)C(=O)[C@H]2CCCN2C(=O)[C@@H](CC(C)C)NC1=O,0.83
CC(C)C[C@@H]1C(=O)N[C@@H](Cc2ccccc2)C(=O)N2CCC[C@H]2C(=O)N(C)[C@@H](C)C(=O)N(C)[C@H](CC(C)C)C(=O)N[C@H](CC(C)C)C(=O)N2CCC[C@@H]2C(=O)N1C,7.9
CC(C)C[C@@H]1NC(=O)[C@H](C)NC(=O)[C@H]2CCCN2C(=O)[C@H](Cc2ccccc2)NC(=O)CN(Cc2ccccc2)C(=O)[C@H]2CCCN2C(=O)[C@@H](CC(C)C)NC1=O,0.13

A selection of 2 entries from above:

| compound | PAMPA (10^-6 cm/s) |
|---|---|
| CC(C)C[C@@H]1C(=O)N[C@H](CC(C)C)C(=O)N2CCC[C@@H]2C(=O)N[C@H](CC(C)C)C(=O)N[C@@H](Cc2ccccc2)C(=O)N[C@@H](C)C(=O)N1C | 0.21 |
| CCCN1CC(=O)N[C@H](CC(C)C)C(=O)N[C@H](CC(C)C)C(=O)N2CCC[C@H]2C(=O)N(C)[C@H](CC(C)C)C(=O)N[C@@H](Cc2ccccc2)C1=O | 1.1 |

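The data file gives no further conditions (lipid, pH, time, direction or concentration), and values from different papers need not be comparable. Other peptides of the study may be missing here. Entries at the database's floor value (log10 P of -10) are not listed.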

Data: CycPeptMPDB; original report Townsend et al. 2020, doi:10.26434/chemrxiv.13335941.v1.